Measurements reported in patent US20130243707A1 (published 2013).

Legend:
[1] = Super-solvent water effect (maximum water before NSAID precipitates); settings: Ibuprofen 4 gm, PG 4 gm, PEG 3 gm, EtOH 1 gm, IPA 1.1 gm
[2] = Super-solvent effect (Drug solubilized by combinations of solvent alcohols)

Super-solvent Effect on water [1]: 49.8% | Super-solvent Effect ([2]; EtOH 1 gr, IPA 1.1 gr): 48.8% | Super-solvent Effect ([2]; PEG 400 3 gr, EtOH 1 gr): 15.4% | Super-solvent Effect ([2]; PEG 400 3 gr, EtOH 1 gr, IPA 1.1 gr): 4.0% | Super-solvent Effect ([2]; PEG 400 3 gr, IPA 1.1 gr): 15.5% | Super-solvent Effect ([2]; PG 4 gr, EtOH 1 gr): 31.3% | Super-solvent Effect ([2]; PG 4 gr, EtOH 1 gr, IPA 1.1 gr): 28.8% | Super-solvent Effect ([2]; PG 4 gr, IPA 1.1 gr): 31.5% | Super-solvent Effect ([2]; PG 4 gr, PEG 400 3 gr): 50.0% | Super-solvent Effect ([2]; PG 4 gr, PEG 400 3 gr, EtOH 1 gr): 32.0% | Super-solvent Effect ([2]; PG 4 gr, PEG 400 3 gr, IPA 1.1 gr): 41.2%
SMILES: CC(C)Cc1ccc(C(C)C(=O)O)cc1 (centres unmarked) [Ibuprofen]
